Experimental data: US9926292B2, “Pyridinyl derivatives, pharmaceutical compositions and uses thereof” (Boehringer Ingelheim International GmbH, priority 2016, dated 2018)

The chains behind the UniProt entries cited, without tags or fusion partners. Residues count along the entry.
UniProt Q16853, whole entry: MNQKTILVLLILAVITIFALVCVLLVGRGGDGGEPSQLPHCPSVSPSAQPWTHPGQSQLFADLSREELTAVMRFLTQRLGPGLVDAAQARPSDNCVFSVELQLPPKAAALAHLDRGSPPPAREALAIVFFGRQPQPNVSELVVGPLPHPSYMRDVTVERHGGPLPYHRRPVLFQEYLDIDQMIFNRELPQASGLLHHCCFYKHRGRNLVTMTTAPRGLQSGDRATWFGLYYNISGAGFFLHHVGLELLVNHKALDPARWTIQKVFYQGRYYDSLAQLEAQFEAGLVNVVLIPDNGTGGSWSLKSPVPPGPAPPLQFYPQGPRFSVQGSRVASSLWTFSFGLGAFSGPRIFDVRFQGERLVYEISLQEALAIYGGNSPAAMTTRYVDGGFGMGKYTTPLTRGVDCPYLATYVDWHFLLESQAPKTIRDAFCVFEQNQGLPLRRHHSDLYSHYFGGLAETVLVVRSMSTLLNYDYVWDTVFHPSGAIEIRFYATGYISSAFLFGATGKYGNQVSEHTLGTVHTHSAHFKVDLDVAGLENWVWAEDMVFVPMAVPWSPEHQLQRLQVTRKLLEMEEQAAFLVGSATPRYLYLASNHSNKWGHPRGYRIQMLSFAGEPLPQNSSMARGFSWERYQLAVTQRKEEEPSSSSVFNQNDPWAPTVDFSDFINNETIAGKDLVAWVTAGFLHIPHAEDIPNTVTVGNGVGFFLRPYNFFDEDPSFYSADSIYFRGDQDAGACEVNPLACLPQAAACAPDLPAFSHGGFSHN
UniProt P19801, 20-751 limits assumed: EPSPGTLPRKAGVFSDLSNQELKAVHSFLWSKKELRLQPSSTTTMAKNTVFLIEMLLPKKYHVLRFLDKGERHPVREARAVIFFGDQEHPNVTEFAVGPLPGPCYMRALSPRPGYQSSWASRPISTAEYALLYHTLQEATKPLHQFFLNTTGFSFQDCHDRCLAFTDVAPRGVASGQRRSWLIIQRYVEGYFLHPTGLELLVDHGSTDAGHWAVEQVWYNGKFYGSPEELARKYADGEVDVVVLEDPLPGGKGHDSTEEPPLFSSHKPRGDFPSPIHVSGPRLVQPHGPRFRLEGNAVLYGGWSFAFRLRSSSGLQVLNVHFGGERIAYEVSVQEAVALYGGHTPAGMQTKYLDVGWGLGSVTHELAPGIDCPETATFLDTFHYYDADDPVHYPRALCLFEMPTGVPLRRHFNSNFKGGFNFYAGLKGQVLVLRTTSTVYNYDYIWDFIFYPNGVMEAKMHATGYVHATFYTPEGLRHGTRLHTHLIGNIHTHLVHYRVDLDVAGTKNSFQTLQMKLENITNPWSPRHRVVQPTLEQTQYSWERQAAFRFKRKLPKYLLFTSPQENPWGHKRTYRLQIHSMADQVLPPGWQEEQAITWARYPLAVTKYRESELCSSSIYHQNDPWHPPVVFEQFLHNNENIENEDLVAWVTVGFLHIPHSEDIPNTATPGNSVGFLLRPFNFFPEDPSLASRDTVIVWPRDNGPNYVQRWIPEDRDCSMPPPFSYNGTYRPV

Key:
AOC3 = AOC3 (Homo sapiens, UniProt Q16853); assay: AOC3 biochemical assay (MAO-Glo); settings: read-out: AOC3 IC50; Table 1
AOC1 = AOC1 (Homo sapiens, UniProt P19801); assay: AOC1 biochemical assay (Amplex Red); settings: read-out: AOC1 IC50; Table 1

IC50 (AOC3): 3 nM
IC50 (AOC1): 2370 nM
SMILES: N=C(N)NC(=O)OCc1cccc(-c2cnc(NCc3ccon3)nc2)n1
